Measured values as given in US9763922B2 (priority 2014, dated 2017).

Target: BRD4 BD1 (Homo sapiens (Human), UniProt O60885)
Settings: read-out: BRD4 Alpha IC50

Question: Which IC50 does the source give for `CC(=O)N1CCc2c(c(Nc3cccc(C)c3)nn2CCC2CCCNC2)C1` (stereo not shown) [Example 215] here?
Answer: The IC50 was 5.88 µM.

Question: For `CC(=O)N1CCc2c(c(Nc3ccc(-c4cnn(C)c4C)cc3F)nn2C2CCOC2)C1` (stereo not shown), which IC50 is on record?
Answer: Its IC50 is 5.01 µM.

Question: `CC(=O)N1CCc2c(c(Nc3cccc(C(=O)N(C)C)c3)nn2CC2CC2)C1` was tested. Which IC50 did it give?
Answer: The IC50 was 9.72 µM.

Question: `CC(=O)N1CCc2c(c(Nc3ccc(-c4cnn(C)c4)cc3Cl)nn2C2CCOC2)C1` (stereo not shown) was tested. Which IC50 did it give?
Answer: The IC50 was 4.13 µM.

Question: Which IC50 does the source give for `CC(=O)N1CCc2c(c(Nc3ccc(-c4cnn(C)c4)cc3)nn2CCC(N)=O)C1` here?
Answer: Its IC50 is 15.9 µM.

Question: `CC(=O)N1CCc2c(c(Nc3cccc(C)c3)nn2CCC#N)C1` [Example 214] was tested. Which IC50 did it give?
Answer: Its IC50 is 14.6 µM.

Question: With `CC(=O)N1CCc2c(c(Nc3ccc(-c4cccc(OC(F)(F)F)c4)cc3)nn2C)C1` as the molecule, how does the IC50 read?
Answer: The IC50 was 6.2 µM.
